We go through 16 compounds from ChEMBL document CHEMBL4680082 (J Med Chem, 2016).

The chains behind the UniProt entries cited, without tags or fusion partners. Where a name states a change or a piece, a line headed by the entry shows the natural chain unless it says otherwise.
UniProt P28335: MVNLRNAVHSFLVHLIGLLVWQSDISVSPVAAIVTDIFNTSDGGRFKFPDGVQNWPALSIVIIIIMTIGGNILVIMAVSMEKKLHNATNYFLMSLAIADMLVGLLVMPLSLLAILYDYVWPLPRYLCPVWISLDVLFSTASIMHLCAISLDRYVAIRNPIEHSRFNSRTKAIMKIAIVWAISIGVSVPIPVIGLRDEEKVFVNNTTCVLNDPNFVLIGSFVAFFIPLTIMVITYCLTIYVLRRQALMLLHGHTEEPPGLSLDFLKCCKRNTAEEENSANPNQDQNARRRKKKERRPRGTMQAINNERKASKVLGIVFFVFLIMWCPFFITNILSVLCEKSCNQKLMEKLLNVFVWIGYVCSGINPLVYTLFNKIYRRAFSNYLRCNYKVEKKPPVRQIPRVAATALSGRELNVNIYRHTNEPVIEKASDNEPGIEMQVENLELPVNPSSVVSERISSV
UniProt P41595, whole entry: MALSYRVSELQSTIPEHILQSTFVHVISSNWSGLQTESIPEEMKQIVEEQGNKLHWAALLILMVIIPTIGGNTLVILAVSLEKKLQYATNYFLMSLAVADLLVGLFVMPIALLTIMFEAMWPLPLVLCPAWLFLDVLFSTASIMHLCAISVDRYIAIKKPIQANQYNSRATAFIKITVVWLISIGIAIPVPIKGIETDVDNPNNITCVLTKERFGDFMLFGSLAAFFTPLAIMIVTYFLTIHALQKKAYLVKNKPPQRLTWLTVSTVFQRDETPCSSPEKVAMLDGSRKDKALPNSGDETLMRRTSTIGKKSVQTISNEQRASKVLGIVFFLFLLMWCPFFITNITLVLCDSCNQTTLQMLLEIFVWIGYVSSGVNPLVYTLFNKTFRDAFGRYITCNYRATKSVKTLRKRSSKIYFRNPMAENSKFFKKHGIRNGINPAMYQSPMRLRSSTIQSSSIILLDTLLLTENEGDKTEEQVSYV
UniProt P28223, whole entry: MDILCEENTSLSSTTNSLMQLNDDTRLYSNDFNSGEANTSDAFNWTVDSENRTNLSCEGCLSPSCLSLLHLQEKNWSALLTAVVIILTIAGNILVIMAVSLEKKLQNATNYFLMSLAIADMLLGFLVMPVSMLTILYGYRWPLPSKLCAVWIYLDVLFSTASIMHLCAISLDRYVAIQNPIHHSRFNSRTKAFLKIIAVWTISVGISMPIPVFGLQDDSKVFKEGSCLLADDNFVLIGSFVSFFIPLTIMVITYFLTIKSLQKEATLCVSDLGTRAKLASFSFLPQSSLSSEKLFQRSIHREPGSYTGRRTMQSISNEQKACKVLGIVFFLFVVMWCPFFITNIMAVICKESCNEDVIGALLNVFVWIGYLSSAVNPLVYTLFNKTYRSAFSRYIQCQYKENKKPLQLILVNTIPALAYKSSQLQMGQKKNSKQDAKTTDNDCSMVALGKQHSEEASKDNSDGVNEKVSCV

The term Emax denotes the size of the effect at its maximum, as opposed to the concentration needed.

Activity calls are given as the source filed them. The calls are words filed in the database; no cut-off is given here.

The target in one test is 5-hydroxytryptamine receptor 2C (Homo sapiens, UniProt P28335). Description: Agonist activity at human 5-HT2C receptor expressed in human Flp-In-293 cells assessed as induction of calcium flux by measuring log (Emax/EC50) incubated for 1 hr by Fluo-4 direct dye based FLIPR assay. It counts as functional, cell-based.
Details: not given
In general terms: Calcium flux is commonly read through the fluorescence of an indicator in the cells.
Take `CCc1cc2c([C@@H]3C[C@H]3CN)c(OC)ccc2o1`: the log(ratio) amounted to 6.94.

On to `C=C(C)COc1ccc2occc2c1[C@H]1C[C@@H]1CN`, for which the log(ratio) was found to be 7.6.

As for `NC[C@@H]1C[C@H]1c1c(OCC2CC2)ccc2occc12`, the log(ratio) was 6.89.

Regarding `CCc1cc2c([C@H]3C[C@@H]3CN)c(OCC3CC3)ccc2o1`, the log(ratio) was found to be 6.86.

For `NC[C@H]1C[C@@H]1c1c(OCC2CC2)ccc2c1CCO2`, the log(ratio) worked out at 7.56.

On to `CCCOc1ccc2occc2c1[C@@H]1C[C@H]1CN`, for which the log(ratio) came out at 7.

Take `CCc1cc2c([C@@H]3C[C@H]3CN)c(OCC3CC3)ccc2o1`: the log(ratio) worked out at 6.19.

On to `CCOc1ccc2occc2c1[C@@H]1C[C@H]1CN`, for which the log(ratio) is 7.61.

The target in another test is T1, 5-hydroxytryptamine receptor 2B (Homo sapiens, UniProt P41595). The test can be described thus: Agonist activity at human 5-HT2B receptor expressed in human Flp-In-293 cells assessed as induction of calcium flux incubated for 1 hr by Fluo-4 direct dye based FLIPR assay relative to 5-HT. The format is functional, cell-based.
Details: not given
As to `NC[C@@H]1C[C@H]1c1c(OCCF)ccc2c1CCO2`, the Emax result was “inactive”.

As for `NC[C@H]1C[C@@H]1c1c(OCCF)ccc2c1CCO2`, the Emax result is “inactive”.

`CCc1cc2c([C@@H]3C[C@H]3CN)c(OCCF)ccc2o1`: the Emax result is “inactive”.

For the compound `C=CCOc1ccc2c(c1[C@H]1C[C@@H]1CN)CCO2`, the Emax worked out at 35%.

Take `CCc1cc2c([C@H]3C[C@@H]3CN)c(OCCF)ccc2o1`: the Emax was 27%.

In the case of `C=CCOc1ccc2c(c1[C@@H]1C[C@H]1CN)CCO2`, the Emax result was “inactive”.

In the case of `C=CCOc1ccc2occc2c1[C@@H]1C[C@H]1CN`, the Emax result is “inactive”.

In the case of `C=CCOc1ccc2occc2c1[C@H]1C[C@@H]1CN`, the Emax came out at 31%.

For the compound `CCc1cc2c([C@@H]3C[C@H]3CN)c(OC)ccc2o1`, the Emax entry was “inactive”.

With `CCc1cc2c([C@H]3C[C@@H]3CN)c(OCC3CC3)ccc2o1`, the Emax entry is “inactive”.

As to `NC[C@H]1C[C@@H]1c1c(OCC2CC2)ccc2c1CCO2`, the Emax came to 33%.

For the compound `CCCOc1ccc2occc2c1[C@@H]1C[C@H]1CN`, the Emax result is “inactive”.

With `CCc1cc2c([C@@H]3C[C@H]3CN)c(OCC3CC3)ccc2o1`, the Emax result is “inactive”.

With `CCOc1ccc2occc2c1[C@@H]1C[C@H]1CN`, the Emax entry is “inactive”.

A further test concerns the target T1, 5-hydroxytryptamine receptor 2B. The test can be described thus: Agonist activity at human 5-HT2B receptor expressed in human Flp-In-293 cells assessed as induction of calcium flux by measuring log(Emax/EC50) incubated for 1 hr by Fluo-4 direct dye based FLIPR assay. The format is functional, cell-based.
Details: not given
For `CCc1cc2c([C@@H]3C[C@H]3CN)c(OC)ccc2o1`, the “log(ratio)” value is “inactive”.

On to `C=C(C)COc1ccc2occc2c1[C@H]1C[C@@H]1CN`, for which the log(ratio) came out at 6.43.

Consider `NC[C@@H]1C[C@H]1c1c(OCC2CC2)ccc2occc12`, for which the log(ratio) was 5.71.

In the case of `CCc1cc2c([C@H]3C[C@@H]3CN)c(OCC3CC3)ccc2o1`, the “log(ratio)” value is “inactive”.

With `NC[C@H]1C[C@@H]1c1c(OCC2CC2)ccc2c1CCO2`, the log(ratio) was 6.09.

`CCCOc1ccc2occc2c1[C@@H]1C[C@H]1CN`: the “log(ratio)” value was “inactive”.

Consider `CCc1cc2c([C@@H]3C[C@H]3CN)c(OCC3CC3)ccc2o1`, for which the “log(ratio)” value was “inactive”.

As to `CCOc1ccc2occc2c1[C@@H]1C[C@H]1CN`, the “log(ratio)” value was “inactive”.

A further test deals with T2, 5-hydroxytryptamine receptor 2A (Homo sapiens, UniProt P28223). The test can be described thus: Agonist activity at human 5-HT2A receptor expressed in human Flp-In-293 cells assessed as induction of calcium flux incubated for 1 hr by Fluo-4 direct dye based FLIPR assay relative to 5-HT. The format is functional, cell-based.
Details: not given
On to `CCc1cc2c([C@@H]3C[C@H]3CN)c(OCCF)ccc2o1`, for which the Emax entry was “inactive”.

Take `C=CCOc1ccc2c(c1[C@@H]1C[C@H]1CN)CCO2`: the Emax result is “inactive”.

For `C=CCOc1ccc2occc2c1[C@@H]1C[C@H]1CN`, the Emax entry is “inactive”.

Take `CCc1cc2c([C@@H]3C[C@H]3CN)c(OC)ccc2o1`: the Emax entry was “inactive”.

With `C=C(C)COc1ccc2occc2c1[C@H]1C[C@@H]1CN`, the Emax turned out to be 19%.

Consider `NC[C@@H]1C[C@H]1c1c(OCC2CC2)ccc2occc12`, for which the Emax result was “inactive”.

On to `CCc1cc2c([C@H]3C[C@@H]3CN)c(OCC3CC3)ccc2o1`, for which the Emax entry was “inactive”.

With `NC[C@H]1C[C@@H]1c1c(OCC2CC2)ccc2c1CCO2`, the Emax amounted to 17%.

In the case of `CCCOc1ccc2occc2c1[C@@H]1C[C@H]1CN`, the Emax result was “inactive”.

With `CCc1cc2c([C@@H]3C[C@H]3CN)c(OCC3CC3)ccc2o1`, the Emax result is “inactive”.

The test is the same for the next values; noted with them: filed as agonist.
As to `C=CCOc1ccc2c(c1[C@H]1C[C@@H]1CN)CCO2`, the Emax is 49%.

Take `CCc1cc2c([C@H]3C[C@@H]3CN)c(OCCF)ccc2o1`: the Emax came out at 44%.

With `C=CCOc1ccc2occc2c1[C@H]1C[C@@H]1CN`, the Emax was 46%.

For the next test, the target named is T2, 5-hydroxytryptamine receptor 2A. Description: Agonist activity at human 5-HT2A receptor expressed in human Flp-In-293 cells assessed as induction of calcium flux by measuring log(Emax/EC50) incubated for 1 hr by Fluo-4 direct dye based FLIPR assay. It counts as functional, cell-based.
Details: not given
`CCc1cc2c([C@@H]3C[C@H]3CN)c(OC)ccc2o1`: the “log(ratio)” value was “inactive”.

Turning to `C=C(C)COc1ccc2occc2c1[C@H]1C[C@@H]1CN`, the log(ratio) turned out to be 5.86.

On to `NC[C@@H]1C[C@H]1c1c(OCC2CC2)ccc2occc12`, for which the “log(ratio)” value was “inactive”.

As to `CCc1cc2c([C@H]3C[C@@H]3CN)c(OCC3CC3)ccc2o1`, the “log(ratio)” value is “inactive”.

As to `NC[C@H]1C[C@@H]1c1c(OCC2CC2)ccc2c1CCO2`, the log(ratio) was found to be 5.35.

Regarding `CCCOc1ccc2occc2c1[C@@H]1C[C@H]1CN`, the “log(ratio)” value was “inactive”.

As for `CCc1cc2c([C@@H]3C[C@H]3CN)c(OCC3CC3)ccc2o1`, the “log(ratio)” value was “inactive”.

Regarding `CCOc1ccc2occc2c1[C@@H]1C[C@H]1CN`, the log(ratio) came to 5.41.

For the next test, the target named is T1, 5-hydroxytryptamine receptor 2B. As to conditions: Flp-In-293, time 1.0 hrs.
On to `NC[C@@H]1C[C@H]1c1c(OCCF)ccc2c1CCO2`, for which the pEC50 entry is “inactive”.

In the case of `NC[C@H]1C[C@@H]1c1c(OCCF)ccc2c1CCO2`, the pEC50 result is “inactive”.

Consider `CCc1cc2c([C@@H]3C[C@H]3CN)c(OCCF)ccc2o1`, for which the pEC50 entry is “inactive”.

Turning to `C=CCOc1ccc2c(c1[C@@H]1C[C@H]1CN)CCO2`, the pEC50 result is “inactive”.

Consider `C=CCOc1ccc2occc2c1[C@@H]1C[C@H]1CN`, for which the pEC50 result was “inactive”.

As to `CCc1cc2c([C@@H]3C[C@H]3CN)c(OC)ccc2o1`, the pEC50 entry was “inactive”.

For `CCc1cc2c([C@H]3C[C@@H]3CN)c(OCC3CC3)ccc2o1`, the pEC50 entry is “inactive”.

For the compound `CCCOc1ccc2occc2c1[C@@H]1C[C@H]1CN`, the pEC50 entry is “inactive”.

`CCc1cc2c([C@@H]3C[C@H]3CN)c(OCC3CC3)ccc2o1`: the pEC50 entry was “inactive”.

For the compound `CCOc1ccc2occc2c1[C@@H]1C[C@H]1CN`, the pEC50 result is “inactive”.

For another test, the target named is T2, 5-hydroxytryptamine receptor 2A. The following applies: Flp-In-293, time 1.0 hrs.
`CCc1cc2c([C@@H]3C[C@H]3CN)c(OCCF)ccc2o1`: the pEC50 result was “inactive”.

Turning to `C=CCOc1ccc2c(c1[C@@H]1C[C@H]1CN)CCO2`, the pEC50 result is “inactive”.

As to `C=CCOc1ccc2occc2c1[C@@H]1C[C@H]1CN`, the pEC50 result is “inactive”.

In the case of `CCc1cc2c([C@@H]3C[C@H]3CN)c(OC)ccc2o1`, the pEC50 result is “inactive”.

Consider `NC[C@@H]1C[C@H]1c1c(OCC2CC2)ccc2occc12`, for which the pEC50 entry was “inactive”.

For the compound `CCc1cc2c([C@H]3C[C@@H]3CN)c(OCC3CC3)ccc2o1`, the pEC50 entry is “inactive”.

For the compound `CCCOc1ccc2occc2c1[C@@H]1C[C@H]1CN`, the pEC50 result is “inactive”.

With `CCc1cc2c([C@@H]3C[C@H]3CN)c(OCC3CC3)ccc2o1`, the pEC50 entry is “inactive”.
